Target: AP-actin (human β-actin A204E/P243K) (human, UniProt P60709 1-375)
Experiment: BLI; competition by sequential loading: biotinylated SETD3 on SA biosensors, first 20 μM 2A (or G buffer) then 20 μM AP-actin, and the reverse order; G buffer; 25 °C
Conditions: both partners purified

binding result: binds
B1: SETD3(1−498) (domain or fragment)
chain: MGKKSRVKTQKSGTGATATVSPKEILNLTSELLQKCSSPAPGPGKEWEEYVQIRTLVEKIRKKQKGLSVTFDGKREDYFPDLMKWASENGASVEGFEMVNFKEEGFGLRATRDIKAEELFLWVPRKLLMTVESAKNSVLGPLYSQDRILQAMGNIALAFHLLCERASPNSFWQPYIQTLPSEYDTPLYFEEDEVRYLQSTQAIHDVFSQYKNTARQYAYFYKVIQTHPHANKLPLKDSFTYEDYRWAVSSVMTRQNQIPTEDGSRVTLALIPLWDMCNHTNGLITTGYNLEDDRCECVALQDFRAGEQIYIFYGTRSNAEFVIHSGFFFDNNSHDRVKIKLGVSKSDRLYAMKAEVLARAGIPTSSVFALHFTEPPISAQLLAFLRVFCMTEEELKEHLLGDSAIDRIFTLGNSEFPVSWDNEVKLWTFLEDRASLLLKTYKTTIEEDKSVLKNHDLSVRAKMAIKLRLGEKEILEKAVKSAAVNREYYRQQMEEKAP
modifications: biotinylated with a biotinylation kit where it was immobilised in BLI; not in SEC, AUC or the crystal
